# Active and inactive are the calls of the source. The rule behind the calls is not given here.
# Sequences of proteins named here, by UniProt entry; tags and fusion partners are left off. A change or cut given only in a name is not applied to a line headed by its entry.
# UniProt P41145: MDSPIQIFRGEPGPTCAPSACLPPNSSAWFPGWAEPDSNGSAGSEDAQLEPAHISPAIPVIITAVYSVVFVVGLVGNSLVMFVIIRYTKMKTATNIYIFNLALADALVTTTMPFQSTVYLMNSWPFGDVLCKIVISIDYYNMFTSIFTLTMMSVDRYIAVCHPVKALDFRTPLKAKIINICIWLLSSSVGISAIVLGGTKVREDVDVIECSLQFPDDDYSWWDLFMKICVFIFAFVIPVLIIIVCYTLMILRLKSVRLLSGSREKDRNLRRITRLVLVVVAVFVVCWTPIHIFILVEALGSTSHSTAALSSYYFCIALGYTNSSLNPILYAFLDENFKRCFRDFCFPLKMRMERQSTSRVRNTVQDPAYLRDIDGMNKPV
# Molecular target: Kappa-type opioid receptor (Homo sapiens) (UniProt P41145)
# Assay: Antagonist activity at human kappa opioid receptor expressed in CHO cell membrane assessed as inhibition of U50,488-induced [35S]GTPgammaS binding after 60 mins by liquid scintillation counting
smiles,measurement,value
C[C@H]1C2Cc3ccc(C(N)=O)cc3[C@@]1(C)CCN2CC1CC1,inhibition,inactive

# — ChEMBL document CHEMBL2346652
